Measurements published in ChEMBL document CHEMBL1143251 (J Med Chem, 2008).

Species: Rattus norvegicus
Assay: Ratio of Ki for rat sigma1 opioid receptor to Ki for rat sigma2 opioid receptor

Ratio Ki: 0.89
SMILES: c1ccc2oc(SCCCCN3CCN(C4CCCCC4)CC3)nc2c1
